Source: patent US20110280813A1, “NEURAMINIDASE INHIBITORS AND USES THEREOF” (priority 2008, published 2011)

Amino acid sequences for entries named in this document (tags omitted). Residues count along the entry.
UniProt P62575, 116-1035: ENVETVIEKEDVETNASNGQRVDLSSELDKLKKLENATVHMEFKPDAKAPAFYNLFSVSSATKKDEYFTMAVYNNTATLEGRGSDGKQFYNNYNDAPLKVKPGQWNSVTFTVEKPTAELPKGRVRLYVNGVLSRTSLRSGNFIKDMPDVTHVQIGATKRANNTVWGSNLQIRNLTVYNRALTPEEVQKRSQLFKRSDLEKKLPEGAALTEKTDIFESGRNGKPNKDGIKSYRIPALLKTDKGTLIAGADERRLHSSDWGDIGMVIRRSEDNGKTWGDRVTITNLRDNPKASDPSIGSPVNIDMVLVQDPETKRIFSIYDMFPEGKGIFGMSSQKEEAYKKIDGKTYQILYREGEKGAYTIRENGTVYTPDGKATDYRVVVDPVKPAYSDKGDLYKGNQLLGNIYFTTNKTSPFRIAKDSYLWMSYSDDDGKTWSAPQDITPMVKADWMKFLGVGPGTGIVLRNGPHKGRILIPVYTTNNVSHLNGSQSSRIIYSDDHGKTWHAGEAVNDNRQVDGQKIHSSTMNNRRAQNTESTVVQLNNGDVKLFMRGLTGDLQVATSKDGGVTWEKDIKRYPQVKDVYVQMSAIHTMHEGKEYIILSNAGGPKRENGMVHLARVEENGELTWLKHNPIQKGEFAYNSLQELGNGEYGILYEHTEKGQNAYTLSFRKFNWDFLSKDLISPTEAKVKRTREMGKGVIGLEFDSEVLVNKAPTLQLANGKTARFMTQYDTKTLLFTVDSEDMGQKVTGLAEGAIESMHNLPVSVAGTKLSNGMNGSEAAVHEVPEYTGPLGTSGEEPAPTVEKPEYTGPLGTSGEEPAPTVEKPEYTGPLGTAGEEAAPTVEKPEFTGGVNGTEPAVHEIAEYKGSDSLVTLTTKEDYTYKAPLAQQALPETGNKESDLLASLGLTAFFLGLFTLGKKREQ

Molecular target: T1, S. pneumoniae neuraminidase (NanA) (Streptococcus pneumoniae, UniProt P62575)
T1 construct: residues 116-1035 of S. pneumoniae D39 sialidase A precursor (NanA); made in house; host or cells: E. coli BL21(DE3), pET28a
Assay: Neuraminidase assay with fluorogenic substrate MNN, NanA
Type: biochemical
Procedure: Neuraminidase assay. Neuraminidase activity of NanA was detected using the fluorogenic substrate 2′-(4-methylumbelliferyl)-α-D-N-acetylneuraminic acid (MNN, Sigma). Reactions contained 1.5 mM MNN, 1 nM of NanA in 2.5 mM sodium phosphate buffer (pH 5). Reactions were allowed to incubate for 2 h at 37° C. before fluorescence intensity was measured at excitation and emission wavelengths of 360 nm and 465 nm in a Tecan microplate reader (Männedorf, Switzerland). NanPs was assayed as above with […] of enzyme in 7.5 mM sodium chloride and 4 mM calcium chloride. Compounds were screened at a concentration of 100 μM before dose-dependence was established. Compounds were obtained from a variety of sources (Otava, Kyiv, Ukraine; Interbioscreen, Moscow, Russia; Chembridge San Diego, USA; Maybridge, Cornwell, UK; Sigma, St Louis, USA; Princeton, Princeton, USA; Lifechem, Burlington, Canada; Enamine, Kiev, Ukraine). Neuraminidase assays with oseltamivir were performed using the hydrolyzed version of the compound. […]
Neuraminidase assay. […] Neuraminidase activity of NanA was detected using the fluorogenic substrate 2′-(4-methylumbelliferyl)-α-D-N-acetylneuraminic acid (MNN, Sigma). […] Reactions were allowed to incubate for 2 h at 37° C. before fluorescence intensity was measured at excitation and emission wavelengths of 360 nm and 465 nm in a Tecan microplate reader (Männedorf, Switzerland). […]

For CC(=O)N[C@H]1[C@H]([C@H](O)[C@H](O)CO)OC(C(=O)O)=C[C@@H]1O [DANA, 2,3-dehydro-2-deoxy-N-acetylneuraminic acid, reference compound], the IC50 (concentration causing 50% inhibition of NanA activity, sialic acids as competitive inhibitors) was 200 µM and the IC50 (concentration reducing NanA activity by 50%, Example 3) was 200 µM.
